Results taken from PubChem BioAssay AID488896 (Broad Institute, 2010).
Only a part is listed here, and it is no random draw. Calls of active or inactive are those of the source.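 How the source made its calls: active means mean replicate inhibition of at least 70% and a set share of replicates each scoring 70 or more; inconclusive means meets just one of the two criteria; inactive means fails both criteria.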

Sequences of proteins named here, by UniProt entry; tags and fusion partners are left off. A change or cut given only in a name is not applied to a line headed by its entry.
UniProt Q61009: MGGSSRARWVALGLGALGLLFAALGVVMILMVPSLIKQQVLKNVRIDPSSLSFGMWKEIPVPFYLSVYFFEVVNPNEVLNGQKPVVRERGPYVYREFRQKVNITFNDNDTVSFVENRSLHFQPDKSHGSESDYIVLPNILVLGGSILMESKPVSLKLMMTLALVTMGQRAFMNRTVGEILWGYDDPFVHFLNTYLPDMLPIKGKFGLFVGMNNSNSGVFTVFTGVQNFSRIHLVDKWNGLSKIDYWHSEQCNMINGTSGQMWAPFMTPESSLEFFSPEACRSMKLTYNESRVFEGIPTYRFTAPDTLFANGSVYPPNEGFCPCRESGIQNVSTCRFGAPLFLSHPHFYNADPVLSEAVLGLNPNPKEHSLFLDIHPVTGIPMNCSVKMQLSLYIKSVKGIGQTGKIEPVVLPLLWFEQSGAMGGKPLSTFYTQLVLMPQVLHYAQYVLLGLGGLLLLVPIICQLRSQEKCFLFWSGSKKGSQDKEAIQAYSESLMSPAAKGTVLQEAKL

What follows are molecules tested against Scavenger receptor class B member 1 (Mus musculus) (UniProt Q61009) (assay: inhibitors of SR-BI mediated HDL lipid uptake, primary screen, ldlA[mSR-BI] cells, fluorescence, single point (AID 488896;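 further: 0% = median of neutral control wells and 100% = median of positive control wells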)). Conditions: ldlA[mSR-BI] CHO cells, DiI-HDL uptake fluorescence, 3 h; at 12.5 µM; stronger effect = higher value.

Compound | inhibition
O=P1(Nc2nc3ccc(Cl)cc3s2)COc2ccccc2O1 (centres undefined) | inactive: -19.7%
CCOc1ccc(C2=NCC(CBr)S2)cc1 (centres undefined) | inactive: 0.0845%
Cc1ccccc1OP(=O)(Nc1ccccn1)Oc1ccccc1C | inactive: 8.06%
CC(NC(=O)COC(=O)C(O)(c1ccccc1)c1ccccc1)c1ccccc1 (centres undefined) | inactive: -12.6%
CN(C)C(=O)Oc1noc2ccccc12 | inactive: -8.48%
O=c1c2cc([N+](=O)[O-])ccc2[nH]c2c([N+](=O)[O-])cc([N+](=O)[O-])cc12 | inactive: 29.4%
COC(=O)c1cc2c(s1)N=C(c1ccccc1)N(C)P2(=O)N1CCOCC1 (centres undefined) | inactive: 18.4%
CC(=O)NC(SC(=S)N(CC(C)C)CC(C)C)C(Cl)(Cl)Cl (centres undefined) | inactive: -12.3%
Cc1ccc(OP(=O)(Nc2ccccn2)Oc2ccc(C)cc2)cc1 | inactive: -16.6%
O=C(OC1CN2CCC1CC2)c1ccccc1 (centres undefined) | inactive: -15.7%
CCC(=O)N1C2C3N(C(=O)CC)C1C1N(C(=O)CC)C(C(N1C(=O)CC)N3C(=O)CC)N2C(=O)CC | inactive: -9.8%
O=P1(N(CCCl)CCCl)OCCC2CCCCN21 (centres undefined) | inactive: 12.1%
CCNC(=S)/N=C(\N)N[N+](=O)[O-] | inactive: -12.1%
O=C(NC1CCS(=O)(=O)C1)NP(=S)(Oc1ccccc1)Oc1ccccc1 (centres undefined) | inactive: -4.36%
c1ccc(-c2nn[nH]n2)c(-c2nn[nH]n2)c1 | inactive: -16.3%
Cc1ccc(NP(=O)(Oc2cccc(C)c2)Oc2cccc(C)c2)nc1 | inactive: -23%
CCN(N=Nc1nonc1N)c1nonc1N | inactive: -31.8%
Nc1cccc2ccc([As](=O)(O)O)cc12 | inactive: -9.39%
CCOP(=O)(Nc1ccccc1)OCC | inactive: -14%
Cc1cc(SC(NC(=O)c2ccc(F)cc2)C(Cl)(Cl)Cl)ncn1 (centres undefined) | inactive: 13.9%
Cc1ccc(NP(=O)(Oc2ccccc2F)Oc2ccccc2F)nc1 | inactive: 4.6%
CN(C(=O)Cc1ccc(Cl)c(Cl)c1)[C@H]1CCCC[C@@H]1N1CCCC1 | inactive: -28.6%
O=C(O)c1ccccc1[As](=O)(O)O | inactive: 4.64%
CC(=O)Nc1ccc([As](=O)(O)O)cc1 | inactive: -6.8%
CCCC1OP(N)(=O)OCC1CC (centres undefined) | inactive: -6.49%
O=P(Nc1nc2ccc(Cl)cc2s1)(c1ccccc1)c1ccccc1 | inactive: 4.08%
CC(C)CC(=O)NC(Sc1ccc(Cl)cc1)C(Cl)(Cl)Cl (centres undefined) | inactive: -3.9%

Compound | inhibition
Nc1cc(N)c2nonc2c1[N+](=O)[O-] | inactive: -15.5%
Oc1ccccc1CNc1ccccn1 | inactive: 4.36%
O=C(NC(Sc1ccncn1)C(Cl)(Cl)Cl)c1ccccc1 (centres undefined) | inactive: -16.6%
COc1ccccc1OP(=O)(Nc1ccc(C)cn1)Oc1ccccc1OC | inactive: -13.5%
Clc1ccc(Cl)c(NC2=NCC(CBr)S2)c1 (centres undefined) | inactive: 13.3%
CN1CCCC(OC(=O)C(c2ccccc2)c2ccccc2)C1 (centres undefined) | inactive: -15.3%
NC(=O)c1cc([N+](=O)[O-])cc([N+](=O)[O-])c1N | inactive: -12.6%
CN(C(=O)Cc1ccc(Cl)c(Cl)c1)[C@H]1CCCC[C@H]1N1CCCC1 | inactive: -5.36%
Cc1ccc(N/C(=N/P(=O)(N2CCOCC2)N2CCOCC2)N2CCOCC2)cc1 | inactive: -30.7%
CC(C)=N/N=C(\N)N[N+](=O)[O-] | inactive: 0.047%
CN(C)C(=O)OCCc1n(C)cc[n+]1C | inactive: -23.9%
CC1CCN(C(=O)Oc2c(Cl)cc(Cl)c3cccnc23)CC1 | inactive: 9.69%
Nc1ccc([As](=O)(O)c2ccc(N)cc2)cc1 | inactive: -16.8%
C[N+]1=C2C=CC=CC=C2SC12C([N+](=O)[O-])=CC([N+](=O)[O-])=C[C-]2[N+](=O)[O-] (centres undefined) | inactive: 13.8%
CCN(/C(=N/P(=O)(N1CCOCC1)N1CCOCC1)N1CCOCC1)c1ccc(OC)cc1 | inactive: -10.6%
O=[N+]([O-])c1cccc2n[nH]nc12 | inactive: -45.3%
CC(=O)N1C2C3N(C(C)=O)C1C1N(C(C)=O)C(C(N1C(C)=O)N3C(C)=O)N2C(C)=O | inactive: -3.59%
Cc1ccc(NP(=O)(Oc2ccccc2)Oc2ccccc2)nc1 | inactive: 2.9%
CCc1nc2c(n1)c1c(non1O)c1c2no[n+]1[O-] | inactive: -8.89%
O=[N+]([O-])c1cc([N+](=O)[O-])c(CCNc2ccccc2)c([N+](=O)[O-])c1 | inactive: 8.88%
COc1ccc(C2=NCC(CBr)S2)cc1 (centres undefined) | inactive: 2.65%
O=[N+]([O-])c1cccc(NC2=NCC(CBr)S2)c1 (centres undefined) | inactive: 2.48%
COC(=O)C1(C)COP(=O)(Nc2ccccc2)OC1 (centres undefined) | inactive: -10.2%
O=C(O)CNc1ccc([As](=O)(O)O)cc1 | inactive: -6.76%
O=[N+]([O-])c1ncn(CCn2ncnc2[N+](=O)[O-])n1 | inactive: 11.9%
O=C(Nc1cc([As](=O)(O)O)ccc1O)c1ccccc1 | inactive: 6.28%
O=P1(N(CCCl)CCCl)OCCCS1 (centres undefined) | inactive: -8.71%
